{"sequences": {"note": "Chains of the proteins cited; added tags and fusions are not shown. Residues count along the entry.", "UniProt Q13705, 19-512": "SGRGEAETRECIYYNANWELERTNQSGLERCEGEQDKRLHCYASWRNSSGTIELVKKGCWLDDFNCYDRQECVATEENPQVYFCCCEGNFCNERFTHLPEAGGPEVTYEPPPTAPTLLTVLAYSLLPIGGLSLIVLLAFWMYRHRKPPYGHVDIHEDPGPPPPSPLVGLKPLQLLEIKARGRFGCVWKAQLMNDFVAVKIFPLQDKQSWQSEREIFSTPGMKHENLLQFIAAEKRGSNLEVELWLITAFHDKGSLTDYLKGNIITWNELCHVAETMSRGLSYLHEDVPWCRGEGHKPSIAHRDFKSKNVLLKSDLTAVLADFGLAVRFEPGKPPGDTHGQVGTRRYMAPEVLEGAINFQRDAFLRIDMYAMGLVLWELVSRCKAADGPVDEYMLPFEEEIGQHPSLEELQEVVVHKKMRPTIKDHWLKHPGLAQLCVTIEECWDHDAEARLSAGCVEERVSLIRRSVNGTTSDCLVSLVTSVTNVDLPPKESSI"}, "source": "patent US20230414711A1", "about": "“THERAPEUTICS TARGETING TRANSFORMING GROWTH FACTOR BETA FAMILY SIGNALING” (The Jackson Laboratory, priority 2020, published 2023)", "origin": "cited, not measured here", "target": "ACVR2B (Homo sapiens, UniProt Q13705)", "details": "initial publication", "data": [{"substance": "bimagrumab: monoclonal antibody targeting ACVR2B, developed by Novartis", "values": [{"measurement": "higher affinity for ACVR2B compared to ACVR2", "result": "over 200 fold"}]}]}
